Results published in ChEMBL document CHEMBL1152608, “Design, synthesis, and X-ray crystal structures of 2,4-diaminofuro[2,3-d]pyrimidines as multireceptor tyrosine kinase and dihydrofolate reductase inhibitors” (Bioorg Med Chem, 2009).
Changes are numbered by the printed parent chain.

Sequences of proteins named here, by UniProt entry; tags and fusion partners are left off.
UniProt P00533, whole entry: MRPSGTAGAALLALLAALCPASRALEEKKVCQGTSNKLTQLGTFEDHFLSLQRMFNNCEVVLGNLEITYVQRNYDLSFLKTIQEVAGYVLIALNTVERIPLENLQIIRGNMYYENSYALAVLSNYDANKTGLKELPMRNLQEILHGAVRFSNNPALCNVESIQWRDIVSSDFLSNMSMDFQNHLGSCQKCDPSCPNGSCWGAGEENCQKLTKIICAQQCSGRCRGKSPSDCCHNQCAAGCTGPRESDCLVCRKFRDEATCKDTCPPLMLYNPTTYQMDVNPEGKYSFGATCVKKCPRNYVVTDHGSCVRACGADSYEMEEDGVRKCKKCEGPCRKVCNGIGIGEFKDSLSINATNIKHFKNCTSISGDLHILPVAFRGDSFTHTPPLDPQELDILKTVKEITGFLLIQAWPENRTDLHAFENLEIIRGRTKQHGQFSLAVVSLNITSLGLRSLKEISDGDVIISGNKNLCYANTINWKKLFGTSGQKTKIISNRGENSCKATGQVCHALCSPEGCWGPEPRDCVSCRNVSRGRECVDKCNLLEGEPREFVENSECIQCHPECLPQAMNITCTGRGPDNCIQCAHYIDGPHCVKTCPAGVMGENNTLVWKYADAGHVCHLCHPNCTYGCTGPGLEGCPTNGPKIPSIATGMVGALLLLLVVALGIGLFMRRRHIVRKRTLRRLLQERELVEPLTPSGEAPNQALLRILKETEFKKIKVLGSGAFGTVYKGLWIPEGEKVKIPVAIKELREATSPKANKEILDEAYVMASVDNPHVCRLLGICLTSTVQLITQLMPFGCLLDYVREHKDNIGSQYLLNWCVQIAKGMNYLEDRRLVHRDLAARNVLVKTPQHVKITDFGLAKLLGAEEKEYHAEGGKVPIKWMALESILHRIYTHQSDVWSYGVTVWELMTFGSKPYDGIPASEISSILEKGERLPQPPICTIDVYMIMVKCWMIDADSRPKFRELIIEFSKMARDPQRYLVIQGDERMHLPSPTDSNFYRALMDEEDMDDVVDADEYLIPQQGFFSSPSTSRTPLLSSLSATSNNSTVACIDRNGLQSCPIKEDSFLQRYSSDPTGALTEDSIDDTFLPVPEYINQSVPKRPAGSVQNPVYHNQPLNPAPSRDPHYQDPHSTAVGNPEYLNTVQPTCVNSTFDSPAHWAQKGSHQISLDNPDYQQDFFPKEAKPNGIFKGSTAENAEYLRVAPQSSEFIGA

Tests used:
[1] = target: T1, Bifunctional dihydrofolate reductase-thymidylate synthase (Toxoplasma gondii, UniProt Q07422); experiment: Inhibition of Toxoplasma gondii DHFR in presence of saturating levels of NADPH and DHFA
T1 sequence (Q07422 whole entry): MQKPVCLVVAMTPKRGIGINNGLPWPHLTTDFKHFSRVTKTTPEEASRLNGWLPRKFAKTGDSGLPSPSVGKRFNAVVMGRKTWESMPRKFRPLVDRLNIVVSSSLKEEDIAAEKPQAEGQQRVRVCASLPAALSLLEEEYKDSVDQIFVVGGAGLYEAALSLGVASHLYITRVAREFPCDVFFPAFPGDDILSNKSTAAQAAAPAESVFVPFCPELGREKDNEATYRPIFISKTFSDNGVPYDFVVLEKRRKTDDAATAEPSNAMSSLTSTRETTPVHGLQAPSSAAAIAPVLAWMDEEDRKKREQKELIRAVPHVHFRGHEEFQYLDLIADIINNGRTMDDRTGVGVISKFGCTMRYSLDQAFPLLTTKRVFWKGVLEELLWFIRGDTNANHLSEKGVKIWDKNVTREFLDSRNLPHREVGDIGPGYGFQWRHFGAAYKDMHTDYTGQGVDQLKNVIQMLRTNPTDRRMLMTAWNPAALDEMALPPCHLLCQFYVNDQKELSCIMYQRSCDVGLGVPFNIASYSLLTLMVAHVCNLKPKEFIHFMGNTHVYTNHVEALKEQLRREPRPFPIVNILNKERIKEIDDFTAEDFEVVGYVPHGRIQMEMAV

[2] = target: Epidermal growth factor receptor (Homo sapiens, UniProt P00533)
Dihydrofolate reductase [3] = target: T2, Dihydrofolate reductase (Mus musculus, UniProt P00375); experiment: Inhibition of mouse DHFR in presence of saturating levels of NADPH and DHFA
T2 sequence (P00375 whole entry): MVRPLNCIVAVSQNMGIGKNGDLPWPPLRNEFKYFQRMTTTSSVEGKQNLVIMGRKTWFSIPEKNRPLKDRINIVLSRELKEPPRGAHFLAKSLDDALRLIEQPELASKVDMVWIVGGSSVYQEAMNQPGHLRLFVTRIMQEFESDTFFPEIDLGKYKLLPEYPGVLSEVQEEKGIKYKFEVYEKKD

Dihydrofolate reductase [4] = target: T3, Dihydrofolate reductase (Rattus norvegicus, UniProt Q920D2); experiment: Inhibition of rat liver DHFR in presence of saturating levels of NADPH and DHFA; format: tissue-based
T3 sequence (Q920D2 whole entry): T2 sequence (P00375 whole entry) with P27L, R85Q, R99K, I115V, G155E, V170I

Dihydrofolate reductase [5] = target: T3, Dihydrofolate reductase; experiment: biochemical

| SMILES | IC50 [1] [µM] | IC50 [2] [µM] | IC50 (Dihydrofolate reductase [3]) [µM] | IC50 (Dihydrofolate reductase [4]) [µM] | Ki (Dihydrofolate reductase [5]) [µM] |
| --- | --- | --- | --- | --- | --- |
| COc1ccccc1/C(C)=C/c1coc2nc(N)nc(N)c12 | 4 |  |  |  |  |
| COc1ccccc1C(=Cc1coc2nc(=N)[nH]c(N)c12)C(C)C (mixture of isomers) |  | 111 |  |  |  |
| COc1ccccc1/C(C)=C\c1coc2nc(N)nc(N)c12 | 3.94 |  | 3.9 |  |  |
| CCCC(=Cc1coc2nc(=N)[nH]c(N)c12)c1ccccc1OC (mixture of isomers) |  | 160 |  | 15.2 | 1.6 |
